# Reference: patent US6440935B1, “Inhibition of eucaryotic pathogens and neoplasms and stimulation of fibroblasts and lymphocytes with lytic peptides” (priority 1987, dated 2002)
# Test system: E. coli E/2/64
# Assay: Lysozyme/cecropin synergism against E. coli (plate growth)
# Conditions: 10 μg, 1 mg, and 10 mg per milliliter; 10^−1 and 10^−3 dilutions
substance,measurement,value
Lysozyme,growth of E. coli,positive growth of E. coli
